Patent US20020183241A1, “Methods for treating vertigo and motion sickness using descarboethoxyloratadine” (priority 1997, published 2002)
pIC50: −log10 of the molar value.

Protein sequences, listed by entry. Tags and fused reporters are not part of them.
UniProt P20309, whole entry: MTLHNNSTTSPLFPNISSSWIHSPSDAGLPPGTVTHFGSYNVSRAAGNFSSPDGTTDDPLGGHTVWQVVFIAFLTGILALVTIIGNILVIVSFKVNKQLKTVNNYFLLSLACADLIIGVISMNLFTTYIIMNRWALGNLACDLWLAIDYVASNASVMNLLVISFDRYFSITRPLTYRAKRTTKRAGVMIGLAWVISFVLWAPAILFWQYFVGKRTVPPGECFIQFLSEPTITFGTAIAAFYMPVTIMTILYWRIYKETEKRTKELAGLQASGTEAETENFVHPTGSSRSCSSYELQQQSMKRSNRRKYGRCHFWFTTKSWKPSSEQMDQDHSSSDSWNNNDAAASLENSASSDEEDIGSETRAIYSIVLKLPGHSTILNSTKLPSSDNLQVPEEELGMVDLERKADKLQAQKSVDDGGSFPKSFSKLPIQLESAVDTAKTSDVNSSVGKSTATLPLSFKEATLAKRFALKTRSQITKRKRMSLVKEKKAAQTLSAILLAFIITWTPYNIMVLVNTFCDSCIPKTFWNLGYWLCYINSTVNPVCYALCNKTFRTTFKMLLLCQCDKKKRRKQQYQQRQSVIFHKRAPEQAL

Target: human m3 muscarinic receptor (Homo sapiens, UniProt P20309)
Details: read-out: estimated IC50, m3 receptor

Substance: 4-diphenylacetoxy-N-methylpiperidine [4-DAMP]
- pIC50: 8.49
